Three substances from patent US10670612B2, “Immunoassay standards and measurement of clinical biomarkers using intra-assay calibration standards” (Saladax Biomedical, Inc., priority 2010, dated 2020) can be followed below.

A short description of the series: Dynamic light scattering. In kind it is physicochemical. As to conditions: for % Intensity / % Mass / % Pd / Mw-R / Radius: phosphate buffer pH 7.4, 25° C. The method, then:
One set was prepared at 1.0 mg/ml, the second set was prepared at 0.10 mg/ml, and stored at room temperature. Peptides were dissolved by vortexing for 1 min, and centrifuged in a microcentrifuge for 5 min at 14,000 rpm, at room temperature. For Aβ42 samples (MSD), vials containing 0.1 mg peptide were suspended in 1.0 ml buffer, and treated as above. A volume (200 μl) of each centrifuged 1.0 mg/ml stock was transferred to a 0.5 ml polypropylene tube, and provided for NMR analysis.
The absorbance spectra of all samples were recorded (220-750 nm) using a NANODROP® ND-1000 instrument, and blanked against the buffer. Dynamic light scattering analysis was conducted on the peptides in a 384 well polystyrene plate (CORNING®, type 3540) with a Wyatt DLS DynaPro plate reader. Data collection and analysis was completed using software from the manufacturer (DYNAMICS, versions 7.0.0.94 and 7.0.1.12). Each peptide was evaluated in triplicate with 30 μl loaded per well, and overlaid with 5 μl mineral oil, to minimize evaporation. Buffer blanks were also included in the analysis for comparison. After loading the plate, a transparent adhesive sealing tape cover was applied to the plate and the plate was centrifuged for 2 min at 1000 rpm. Each sample on the plate was read 30 times, 5 sec per acquisition, maintaining a temperature of 25° C. Data sets were collected on both the 1.0 mg/ml and 0.10 mg/ml samples over the course of 27 days. The adhesive cover was removed to read the samples in the plate reader, and used to cover the plate between readings over the 27 day time course.
FIGS. 7A through 7F show dynamic light scattering data. In FIGS. 7A-F, the full length Aβ42 peptide was subjected to DLS analysis and compared to four representative modified peptides. […] FIG. 7a represents the raw data accumulated for all five peptides. Shown is the intensity autocorrelation versus time. […] FIGS. 7b-7f depict the percent mass versus the radius of the peptides. Monomeric peptides would be represented by a larger percent mass at the smaller radius size.

On to “DAEFRHDSGYEVHHQK-{PEG(9-atoms}6-MVGGVVIA (DAEFRHDSGYEVHHQKMVGGVVIA; (PEG9)6 linker; Modified Peptide; (17)..(34) Sequence comprises a PEG(9-ATOMS)6 linker located between Lys at position 16 and Met at position 17) [GS#2, native Aβ42 amino acids (1-16)-(PEG_9)6 linker-native Aβ42 amino acids (35-42)]”, for which, for the setting “DLS Peak 1”, the “% Intensity” value is listed as 1.6%, the “% Mass” value was 98.0%, the “% Pd” value amounted to 4.3% and the Mw-R is given as 3.0 kDa. This substance also gave a Radius (DLS Peak 1) of 0.9 nm. Moreover, for the setting “DLS Peak 2”, the “% Intensity” value was 3.4%, the “% Mass” value was 1.8%, the “% Pd” value is recorded as 1.9% and the Mw-R is 117.0 kDa. This substance displayed a Radius (DLS Peak 2) of 4.6 nm. Where the note is “DLS Peak 3”, the “% Intensity” value is listed as 76.1%, the “% Mass” value is on record as 0.1%, the “% Pd” value was 3.8% and the Mw-R was 15580.0 kDa. Under “DLS Peak 3”, this substance had a Radius of 36.9 nm. Moreover, under “DLS Peak 4”, the “% Intensity” value worked out at 18.9%, the “% Mass” value was 0.1%, the “% Pd” value is listed as 4.5% and the Mw-R came out at 572266.0 kDa. Under “DLS Peak 4”, this substance returned a Radius of 172.0 nm.
As for “DAEFRHDSGYEVHHQK-PEG(9-ATOMS)5-IGLMVGGVVIA (DAEFRHDSGYEVHHQKIGLMVGGVVIA; (PEG9)5 linker; Modified Peptide; (17)..(31) Sequence comprises a PEG(9-ATOMS)5 linker located between Lys at position 16 and Ile at position 17) [GS#3, native Aβ42 amino acids (1-16)-PEG_9)5 linker-native Aβ42 amino acids (32-42)]”, where the note is “DLS Peak 1”, the “% Intensity” value stood at 0.4%, the “% Mass” value was 57.9%, the “% Pd” value stood at 0.0% and the Mw-R is 119.0 kDa. The substance also returned a Radius (DLS Peak 1) of 4.5 nm. Further, for the setting “DLS Peak 2”, the “% Intensity” value was 4.8%, the “% Mass” value stood at 19.7%, the “% Pd” value is recorded as 4.5% and the Mw-R turned out to be 2101.0 kDa. In addition, the Radius (DLS Peak 2) came out at 15.7 nm. In addition, under “DLS Peak 3”, the “% Intensity” value amounted to 94.8%, the “% Mass” value turned out to be 22.4%, the “% Pd” value was found to be 4.5% and the Mw-R is listed as 51794.0 kDa. The substance further registered a Radius (DLS Peak 3) of 61.6 nm. For the same substance, the “aggregation state in solution by DLS” value (DLS, FIGS. 7A-F) was “did retain some aggregation”.
Take “DAEFRHDSGYEVHHQK-{PEG(20-atoms}3-GGVVIA (DAEFRHDSGYEVHHQKGGVVIA; (PEG20)3 linker; Modified Peptide; (17)..(36) Sequence comprises a PEG(20-ATOMS)3 linker located between Lys located at position 16 and the Gly located at position 17) [GS#1, native Aβ42 amino acids (1-16)-(PEG_20)3 linker-native Aβ42 amino acids (37-42)]”: for the setting “DLS Peak 1”, the “% Intensity” value stood at 6.3%, the “% Mass” value is listed as 99.9%, the “% Pd” value is listed as 4.6% and the Mw-R was determined as 5.0 kDa. Also, the Radius (DLS Peak 1) was determined as 1.2 nm. For the same substance, for the setting “DLS Peak 2”, the “% Intensity” value is 93.7%, the “% Mass” value was determined as 0.1%, the “% Pd” value was 3.9% and the Mw-R is given as 29512.0 kDa. For the setting “DLS Peak 2”, this substance came in with a Radius of 48.4 nm.
